SMILES strings stand for the structures.

Sequences of proteins named here, by UniProt entry; tags and fusion partners are left off. A line that says so, or that is headed by a name, gives the form on record, which may keep a tag or linker.
UniProt A0A287AP33, as listed by the source: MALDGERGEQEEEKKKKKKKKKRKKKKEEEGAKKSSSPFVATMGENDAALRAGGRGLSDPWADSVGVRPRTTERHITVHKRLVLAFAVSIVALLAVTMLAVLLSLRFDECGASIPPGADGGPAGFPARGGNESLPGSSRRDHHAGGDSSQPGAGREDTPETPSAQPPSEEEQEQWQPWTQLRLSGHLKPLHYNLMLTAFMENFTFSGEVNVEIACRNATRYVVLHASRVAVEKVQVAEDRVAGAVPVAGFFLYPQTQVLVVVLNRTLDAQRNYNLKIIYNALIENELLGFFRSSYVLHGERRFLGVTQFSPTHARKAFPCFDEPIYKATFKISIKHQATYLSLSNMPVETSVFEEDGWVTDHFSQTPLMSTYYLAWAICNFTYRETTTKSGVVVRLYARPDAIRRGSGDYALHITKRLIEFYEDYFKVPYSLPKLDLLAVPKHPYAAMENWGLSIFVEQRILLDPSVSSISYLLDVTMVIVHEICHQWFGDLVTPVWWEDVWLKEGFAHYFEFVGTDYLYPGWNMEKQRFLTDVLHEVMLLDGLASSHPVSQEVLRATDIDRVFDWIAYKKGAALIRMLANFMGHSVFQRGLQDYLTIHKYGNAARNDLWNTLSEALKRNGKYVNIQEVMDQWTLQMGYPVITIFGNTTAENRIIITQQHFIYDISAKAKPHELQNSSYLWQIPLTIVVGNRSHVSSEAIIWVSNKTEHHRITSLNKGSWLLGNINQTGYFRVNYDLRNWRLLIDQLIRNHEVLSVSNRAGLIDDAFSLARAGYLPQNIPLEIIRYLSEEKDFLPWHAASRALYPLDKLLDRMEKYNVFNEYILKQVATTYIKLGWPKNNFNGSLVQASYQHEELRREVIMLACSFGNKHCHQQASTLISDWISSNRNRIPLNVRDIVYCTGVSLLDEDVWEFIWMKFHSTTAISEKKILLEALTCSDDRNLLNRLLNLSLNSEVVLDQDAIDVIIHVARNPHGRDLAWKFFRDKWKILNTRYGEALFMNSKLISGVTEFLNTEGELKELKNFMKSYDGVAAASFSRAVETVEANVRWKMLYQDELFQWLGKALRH

The test has as its target Thyrotropin releasing hormone degrading enzyme (Sus scrofa) (UniProt A0A287AP33). Put plainly: Substrate activity at pig brain TRH-DE assessed as retention time at 1 mM incubated for 18 hrs by HPLC analysis.

For the compound `NC(=O)C[C@H](NC(=O)[C@@H]1CCC(=O)N1)C(=O)N1CCC[C@H]1C(=O)Nc1ccccc1O`, the Retention time turned out to be 13.2 min.
